Test results taken from ChEMBL document CHEMBL3525922, “Significance of reductive metabolism in human intestine and quantitative prediction of intestinal first-pass metabolism by cytosolic reductive enzymes” (Drug Metab Dispos, 2013).

What was measured:
Liver cytosol = assay: Unbound intrinsic clearance in human liver cytosol at 50 to 1000 nM after 30 to 60 mins by HPLC-MS/MS analysis; type: ADME, tissue-based; conditions: 1 µM
[1] = Unbound intrinsic clearance in human intestinal S9 fraction at 50 to 1000 nM after 30 to 60 mins by HPLC-MS/MS analysis in presence of NADPH; type: ADME, Intestine; conditions: s9, 1 µM
Liver = assay: Unbound intrinsic clearance in human liver S9 fraction at 50 to 1000 nM after 30 to 60 mins by HPLC-MS/MS analysis; type: ADME, subcellular; conditions: s9, 1 µM
[2] = Unbound intrinsic clearance in human intestinal S9 fraction at 50 to 1000 nM after 30 to 60 mins by HPLC-MS/MS analysis; type: ADME, Intestine; conditions: s9, 1 µM
[3] = Unbound intrinsic clearance in human intestinal cytosol at 50 to 1000 nM after 30 to 60 mins by HPLC-MS/MS analysis; type: ADME, Intestine; conditions: 1 µM

CL free (Liver cytosol): 11 µL/min/mg
CL free [1]: 61 µL/min/mg
CL free (Liver): 16 µL/min/mg
CL free [2]: 61 µL/min/mg
CL free [3]: 45 µL/min/mg
SMILES: COC(=O)Nc1nc2ccc(C(=O)c3ccccc3)cc2[nH]1 [MEBENDAZOLE]
